US4197299A, “Anti-hypertensive derivatives of ergoline-2-thioethers and their sulphoxides” (priority 1977, dated 1980)

System: 5HT
Assay: Anti 5HT activity in vitro (f)
Source text: (f) V. Ersparmer, Arch. Int. Pharmacodyn. 93, 293,

CN1C[C@H](CNC(=O)OCc2ccccc2)C[C@@H]2c3cccc4c3c(cn4C)C[C@H]21 [metergoline, reference compound]
Anti 5HT activity in vitro EC50: 0.005 ng/mL
